Membrane permeability of cyclic peptides

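The data file gives no further conditions (lipid, pH, time, direction or concentration), and values from different papers need not be comparable. Other peptides of the study may be missing here. Entries at the database's floor value (log10 P of -10) are not listed.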

PAMPA is the parallel artificial membrane permeability assay, which has no cells and reads passive diffusion. P is given in units of 10^-6 cm/s (from log10 values with two decimals); larger means faster passage.

compound | PAMPA (10^-6 cm/s)
CCCN1CC(=O)N[C@H](CC(C)C)C(=O)N[C@H](CC(C)C)C(=O)N2CCC[C@@H]2C(=O)N(C)[C@H](CC(C)C)C(=O)N[C@@H](Cc2ccccc2)C(=O)N2CCC[C@@H]2C1=O | 2.8
CC(C)C[C@@H]1NC(=O)[C@@H]2CCCN2C(=O)[C@H](CC(C)C)NC(=O)CN(Cc2ccccc2)C(=O)[C@@H](C)N(C)C(=O)[C@H](Cc2ccccc2)NC1=O | 1.7
CCCN1CC(=O)N[C@@H](CC(C)C)C(=O)N(C)[C@H](CC(C)C)C(=O)N2CCC[C@@H]2C(=O)N[C@H](CC(C)C)C(=O)N[C@@H](Cc2ccccc2)C1=O | 6.2
CCCN1CC(=O)N[C@H](CC(C)C)C(=O)N(Cc2ccccc2)CC(=O)N2CCC[C@@H]2C(=O)N(C)[C@@H](CC(C)C)C(=O)N[C@@H](Cc2ccccc2)C1=O | 9.1
CC(C)C[C@@H]1NC(=O)[C@@H](CC(C)C)NC(=O)C[C@H](Cc2ccccc2)NC(=O)[C@H]2CCCN2C(=O)[C@H](Cc2ccccc2)NC(=O)[C@@H](CC(C)C)N(C)C(=O)[C@H]2CCCN2C1=O | 4.7
CC(C)C[C@@H]1NC(=O)[C@@H](C)NC(=O)[C@@H]2CCCN2C(=O)[C@H](Cc2ccccc2)NC(=O)CN(Cc2ccccc2)C(=O)[C@@H]2CCCN2C(=O)CN(Cc2ccccc2)C1=O | 0.33
CC(C)C[C@@H]1C(=O)N(C)[C@@H](CC(C)C)C(=O)N2CCC[C@@H]2C(=O)N(C)[C@@H](CC(C)C)C(=O)N[C@@H](Cc2ccccc2)C(=O)N[C@H](C)C(=O)N1C | 10
CC(C)C[C@@H]1NC(=O)C[C@H](Cc2ccccc2)NC(=O)[C@@H]2CCCN2C(=O)[C@H](Cc2ccccc2)NC(=O)[C@H](CC(C)C)N(C)C(=O)[C@@H]2CCCN2C(=O)[C@H](CC(C)C)NC1=O | 2.7
CCCN1CC(=O)N(C)[C@H](CC(C)C)C(=O)N(C)[C@@H](CC(C)C)C(=O)N2CCC[C@H]2C(=O)N(C)[C@@H](CC(C)C)C(=O)N[C@@H](Cc2ccccc2)C(=O)N2CCC[C@H]2C1=O | 8.3
CC(C)C[C@@H]1NC(=O)C[C@H](Cc2ccccc2)NC(=O)[C@@H]2CCCN2C(=O)[C@H](Cc2ccccc2)NC(=O)[C@H](CC(C)C)NC(=O)[C@@H]2CCCN2C(=O)C[C@H](Cc2ccccc2)NC1=O | 1.5
CC(C)C[C@@H]1C(=O)N2CCC[C@@H]2C(=O)N[C@H](CC(C)C)C(=O)N[C@@H](Cc2ccccc2)C(=O)N2CCC[C@H]2C(=O)N(C)[C@@H](C)C(=O)N[C@H](CC(C)C)C(=O)N1C | 2
CCCN1CC(=O)N(Cc2ccccc2)CC(=O)N[C@H](CC(C)C)C(=O)N2CCC[C@@H]2C(=O)N(C)[C@H](CC(C)C)C(=O)N[C@@H](Cc2ccccc2)C(=O)N2CCC[C@@H]2C1=O | 2.2
CC(C)C[C@@H]1C(=O)N[C@H](CC(C)C)C(=O)N2CCC[C@H]2C(=O)N(C)[C@@H](CC(C)C)C(=O)N[C@@H](Cc2ccccc2)C(=O)N2CCC[C@H]2C(=O)N[C@H](C)C(=O)N1C | 3.2
CC(C)C[C@@H]1NC(=O)C[C@H](Cc2ccccc2)NC(=O)[C@H](Cc2ccccc2)NC(=O)[C@@H](CC(C)C)NC(=O)[C@H]2CCCN2C(=O)[C@H](CC(C)C)NC1=O | 14
CC(C)C[C@@H]1NC(=O)[C@@H](CC(C)C)N(C)C(=O)[C@@H](C)NC(=O)[C@H](Cc2ccccc2)NC(=O)[C@H](CC(C)C)N(C)C(=O)[C@H]2CCCN2C1=O | 12
CC(C)C[C@@H]1NC(=O)[C@@H](C)NC(=O)[C@H]2CCCN2C(=O)[C@H](Cc2ccccc2)NC(=O)[C@H](CC(C)C)N(C)C(=O)[C@@H]2CCCN2C(=O)[C@H](CC(C)C)N(C)C1=O | 2.6
CC(C)C[C@@H]1NC(=O)[C@@H](CC(C)C)NC(=O)C[C@H](Cc2ccccc2)NC(=O)[C@H](Cc2ccccc2)NC(=O)CN(Cc2ccccc2)C(=O)[C@H]2CCCN2C1=O | 1.8
CCCN1CC(=O)N[C@H](CC(C)C)C(=O)N[C@H](CC(C)C)C(=O)N2CCC[C@@H]2C(=O)N[C@@H](CC(C)C)C(=O)N[C@@H](Cc2ccccc2)C1=O | 1.3
CC(C)C[C@H]1NC(=O)[C@@H](C)N(C)C(=O)[C@H]2CCCN2C(=O)[C@H](Cc2ccccc2)NC(=O)[C@H](CC(C)C)N(C)C(=O)[C@@H]2CCCN2C(=O)C[C@H](Cc2ccccc2)NC1=O | 1.2

2 of these entries, quoted again:

| compound | PAMPA (10^-6 cm/s) |
|---|---|
| CC(C)C[C@@H]1NC(=O)C[C@H](Cc2ccccc2)NC(=O)[C@@H]2CCCN2C(=O)[C@H](Cc2ccccc2)NC(=O)[C@H](CC(C)C)N(C)C(=O)[C@@H]2CCCN2C(=O)[C@H](CC(C)C)NC1=O | 2.7 |
| CC(C)C[C@@H]1NC(=O)C[C@H](Cc2ccccc2)NC(=O)[C@H](Cc2ccccc2)NC(=O)[C@@H](CC(C)C)NC(=O)[C@H]2CCCN2C(=O)[C@H](CC(C)C)NC1=O | 14 |

Source: CycPeptMPDB (Li et al. 2023), which took these values from Townsend et al. 2020, doi:10.26434/chemrxiv.13335941.v1.